Source: patent publication US8946224B2, “Substituted [1,2,4]triazolo[4,3-A]pyrazines for medicaments and pharmaceutical compositions” (Redx Pharma Limited, priority 2010, dated 2015)

The chains behind the UniProt entries cited, without tags or fusion partners.
UniProt P27338, whole entry: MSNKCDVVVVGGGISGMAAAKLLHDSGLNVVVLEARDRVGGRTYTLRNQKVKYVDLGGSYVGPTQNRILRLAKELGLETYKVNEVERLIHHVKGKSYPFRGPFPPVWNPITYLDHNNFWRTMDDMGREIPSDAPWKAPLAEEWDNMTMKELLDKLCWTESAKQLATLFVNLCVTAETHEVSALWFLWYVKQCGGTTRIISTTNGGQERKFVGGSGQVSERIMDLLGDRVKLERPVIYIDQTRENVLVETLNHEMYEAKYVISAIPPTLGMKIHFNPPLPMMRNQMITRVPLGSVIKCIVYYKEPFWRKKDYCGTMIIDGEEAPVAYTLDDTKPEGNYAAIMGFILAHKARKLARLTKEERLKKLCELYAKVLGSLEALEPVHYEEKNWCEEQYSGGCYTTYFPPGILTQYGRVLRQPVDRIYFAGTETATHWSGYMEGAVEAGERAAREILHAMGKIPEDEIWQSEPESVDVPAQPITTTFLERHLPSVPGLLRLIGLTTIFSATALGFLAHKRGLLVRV

Target: recombinant human MAO-B (Homo sapiens, UniProt P27338)
Test: MAO-B inhibition, kynuramine substrate, LC-MS/MS of 4-hydroxyquinoline (Example 99)
Type: biochemical

In the case of `N[C@@H]1C[C@H]1c1ccccc1` (racemic) [Tranylcypromine, tranylcypromine, reference compound], the “Mean % Activity Remaining (n = 2)” value is reported as 0%.
